Measured values as given in patent US20090182033A1, “Cyclic Amine Derivatives and Their Uses” (ARGENTA DISCOVERY LTD., priority 2005, published 2009).

The chains behind the UniProt entries cited, without tags or fusion partners.
UniProt P20309, whole entry, looked up: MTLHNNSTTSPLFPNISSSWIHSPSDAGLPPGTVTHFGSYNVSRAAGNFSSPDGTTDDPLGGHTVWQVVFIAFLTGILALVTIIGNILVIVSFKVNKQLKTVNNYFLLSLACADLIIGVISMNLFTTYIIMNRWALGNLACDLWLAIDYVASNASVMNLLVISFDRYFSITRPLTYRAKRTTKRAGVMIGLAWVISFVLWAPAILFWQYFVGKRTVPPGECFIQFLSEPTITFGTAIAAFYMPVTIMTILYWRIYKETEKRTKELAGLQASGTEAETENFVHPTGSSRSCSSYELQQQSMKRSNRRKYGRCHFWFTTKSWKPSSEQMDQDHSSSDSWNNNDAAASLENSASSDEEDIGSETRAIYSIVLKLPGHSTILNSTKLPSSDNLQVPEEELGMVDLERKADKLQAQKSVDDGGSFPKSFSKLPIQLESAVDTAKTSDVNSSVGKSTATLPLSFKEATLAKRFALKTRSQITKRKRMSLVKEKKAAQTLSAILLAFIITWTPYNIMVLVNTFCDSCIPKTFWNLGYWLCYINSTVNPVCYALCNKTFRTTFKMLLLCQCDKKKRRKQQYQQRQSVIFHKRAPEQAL

What was measured:
[1] = test system: methacholine-induced bronchoconstriction in the Guinea pig; test: Methacholine induced bronchoconstriction in vivo; settings: 3 μg/kg i.n., 1 hr after dosing, i.v. methacholine
human M3 receptor = human M3 receptor (Homo sapiens, UniProt P20309); test: Inhibition of M3 receptor activation via calcium mobilization; settings: CHO cells expressing the human M3 receptor, Carbachol at EC80, calcium-sensitive dye

| SMILES | bronchoprotective effect [1] | IC50 (human M3 receptor) |
| --- | --- | --- |
| C[N+](C)(CCCc1ccccc1)C1CC2CCC1C2OC(=O)C(O)(c1cccs1)c1cccs1.[Br-] (centres unmarked) | bronchoprotective |  |
| C[N+](C)(CCCc1ccccc1)C1CC2CCC1C2OC(=O)C(O)(c1cccs1)c1cccs1 (centres unmarked) |  | < 10 nM |
